By UniProt entry, the sequences of proteins in these tests, tags left out. Where a name states a change or a piece, a line headed by the entry shows the natural chain unless it says otherwise.
UniProt P11712, whole entry: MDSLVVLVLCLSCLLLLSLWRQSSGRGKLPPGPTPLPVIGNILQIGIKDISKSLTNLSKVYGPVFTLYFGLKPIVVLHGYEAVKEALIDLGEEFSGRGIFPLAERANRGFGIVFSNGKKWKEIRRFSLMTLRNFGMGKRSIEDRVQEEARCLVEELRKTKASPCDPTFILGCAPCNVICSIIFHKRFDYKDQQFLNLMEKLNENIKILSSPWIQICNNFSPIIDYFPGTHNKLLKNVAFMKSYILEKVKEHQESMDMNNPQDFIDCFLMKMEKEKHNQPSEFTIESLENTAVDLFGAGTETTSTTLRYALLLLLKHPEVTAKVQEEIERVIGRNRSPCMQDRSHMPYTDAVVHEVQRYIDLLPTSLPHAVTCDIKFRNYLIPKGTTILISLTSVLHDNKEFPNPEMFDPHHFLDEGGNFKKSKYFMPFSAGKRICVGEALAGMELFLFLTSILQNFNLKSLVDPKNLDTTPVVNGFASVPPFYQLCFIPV
UniProt P33261, whole entry: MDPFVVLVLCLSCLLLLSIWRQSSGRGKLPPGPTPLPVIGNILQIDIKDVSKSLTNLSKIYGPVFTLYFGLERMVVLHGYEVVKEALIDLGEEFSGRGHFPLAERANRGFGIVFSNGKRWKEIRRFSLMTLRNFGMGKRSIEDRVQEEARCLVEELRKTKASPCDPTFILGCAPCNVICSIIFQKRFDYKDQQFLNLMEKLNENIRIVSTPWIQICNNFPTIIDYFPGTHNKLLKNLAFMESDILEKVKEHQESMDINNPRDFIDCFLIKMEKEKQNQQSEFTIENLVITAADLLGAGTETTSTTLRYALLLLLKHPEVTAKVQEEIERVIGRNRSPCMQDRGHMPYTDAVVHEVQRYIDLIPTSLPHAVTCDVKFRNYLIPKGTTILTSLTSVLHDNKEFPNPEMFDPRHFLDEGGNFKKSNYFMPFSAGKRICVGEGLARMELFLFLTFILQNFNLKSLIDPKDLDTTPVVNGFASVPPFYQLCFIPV
UniProt P05177, whole entry: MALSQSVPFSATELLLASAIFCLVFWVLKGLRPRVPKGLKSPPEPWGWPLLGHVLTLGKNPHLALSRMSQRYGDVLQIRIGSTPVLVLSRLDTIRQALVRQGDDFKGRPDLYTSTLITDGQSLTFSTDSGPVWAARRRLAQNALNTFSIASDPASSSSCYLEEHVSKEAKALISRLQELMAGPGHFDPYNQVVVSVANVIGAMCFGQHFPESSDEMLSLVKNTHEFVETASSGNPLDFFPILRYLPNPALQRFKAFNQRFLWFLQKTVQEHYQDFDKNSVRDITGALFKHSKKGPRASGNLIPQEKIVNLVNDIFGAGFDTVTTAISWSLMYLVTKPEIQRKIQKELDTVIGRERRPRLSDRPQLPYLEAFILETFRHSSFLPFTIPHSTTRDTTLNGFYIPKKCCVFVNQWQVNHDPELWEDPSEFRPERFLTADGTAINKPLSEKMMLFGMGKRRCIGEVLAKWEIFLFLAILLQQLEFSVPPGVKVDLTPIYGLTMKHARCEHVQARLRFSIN
UniProt Q12809: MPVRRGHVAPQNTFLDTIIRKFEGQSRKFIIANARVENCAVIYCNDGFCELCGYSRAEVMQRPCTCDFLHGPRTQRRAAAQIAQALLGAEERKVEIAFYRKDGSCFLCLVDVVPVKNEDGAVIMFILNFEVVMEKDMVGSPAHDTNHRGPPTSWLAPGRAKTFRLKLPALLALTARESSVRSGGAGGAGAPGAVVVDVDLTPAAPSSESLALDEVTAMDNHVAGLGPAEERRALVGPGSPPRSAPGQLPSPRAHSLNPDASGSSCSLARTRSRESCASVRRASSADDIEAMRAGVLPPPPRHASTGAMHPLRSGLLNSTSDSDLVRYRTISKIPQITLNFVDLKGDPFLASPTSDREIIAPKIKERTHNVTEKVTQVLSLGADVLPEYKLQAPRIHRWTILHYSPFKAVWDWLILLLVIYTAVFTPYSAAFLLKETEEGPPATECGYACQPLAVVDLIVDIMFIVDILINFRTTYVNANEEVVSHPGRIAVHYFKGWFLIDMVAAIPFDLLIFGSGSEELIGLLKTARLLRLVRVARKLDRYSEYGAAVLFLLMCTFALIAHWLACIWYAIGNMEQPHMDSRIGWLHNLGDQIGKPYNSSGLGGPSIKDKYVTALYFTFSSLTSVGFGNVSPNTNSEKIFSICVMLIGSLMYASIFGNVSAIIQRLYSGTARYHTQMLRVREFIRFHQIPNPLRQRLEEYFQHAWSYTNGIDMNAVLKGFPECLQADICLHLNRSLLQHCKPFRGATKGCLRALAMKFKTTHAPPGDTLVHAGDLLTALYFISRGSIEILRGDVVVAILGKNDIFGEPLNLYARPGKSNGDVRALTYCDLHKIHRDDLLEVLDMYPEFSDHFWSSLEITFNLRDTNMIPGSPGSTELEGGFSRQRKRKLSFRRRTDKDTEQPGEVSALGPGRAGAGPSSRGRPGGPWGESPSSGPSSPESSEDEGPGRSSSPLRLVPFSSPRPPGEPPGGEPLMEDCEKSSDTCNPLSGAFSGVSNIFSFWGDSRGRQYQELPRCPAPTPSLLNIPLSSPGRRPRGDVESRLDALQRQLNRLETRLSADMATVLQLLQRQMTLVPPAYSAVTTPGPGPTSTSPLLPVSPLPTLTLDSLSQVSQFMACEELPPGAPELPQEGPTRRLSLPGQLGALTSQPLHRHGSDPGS

According to US20240067633A1, “KETOHEXOKINASE INHIBITOR AND USE THEREOF” (SICHUAN HAISCO PHARMACEUTICAL CO., LTD., priority 2020, published 2024):

Legend:
CYP2C9 = CYP2C9 (Homo sapiens (Human), UniProt P11712); assay: CYP450 enzyme inhibition test, mixed human liver microsomes; assay type: in vitro ADME; settings: 0.05-50 μM
Procedure: (§1) In this test, after the mixed human liver microsomes were incubated with isomer 2 of compound 20 at different concentrations (0.05-50 μM) and corresponding probe drugs, the changes of CYP enzyme activity were measured, and the IC50 value was calculated to evaluate the inhibition potential of isomer 2 of compound 20 on each CYP enzyme.

CYP2C19 = CYP2C19 (Homo sapiens (Human), UniProt P33261); assay: as above; assay type: in vitro ADME; settings: 0.05-50 μM
Procedure: as §1

CYP1A2 = CYP1A2 (Homo sapiens (Human), UniProt P05177); assay type: in vitro ADME; settings: microsomes
Procedure: as §1

hERG potassium channel = hERG potassium channel (Homo sapiens (Human), UniProt Q12809); assay: Test for hERG potassium ion channel, manual patch-clamp in CHO cells; assay type: cell-based
From the text: Test platform: electrophysiological manual patch-clamp system
Cell line: Chinese hamster ovary (CHO) cell lines stably expressing hERG potassium ion channel
Test method: In CHO (Chinese Hamster Ovary) cells stably expressing hERG potassium channel, whole cell patch-clamp technique was used to record hERG potassium channel current at room temperature. The glass microelectrode was made of a glass electrode blank (BF150-86-10, Sutter) by a puller. The tip resistance after filling the liquid in the electrode was about 2-5 MΩ. The glass microelectrode can be connected to the patch-clamp amplifier by inserting the glass microelectrode into an amplifier probe. The clamping voltage and data recording were controlled and recorded by the pClamp 10 software through a computer. The sampling frequency was 10 kHz, and the filtering frequency was 2 kHz. After the whole cell records were obtained, the cells were clamped at −80 mV, and the step voltage that induced the hERG potassium current (IhERG) was depolarized from −80 mV to +20 mV for 2 s, then repolarized to −50 mV, and returned to −80 mV after 1 s. This voltage stimulation was given every 10 s, and the administration process was started after the hERG potassium current was confirmed to be stable (at least 1 minute). The compound was administered for at least 1 minute at each test concentration, and at least 2 cells (n>2) were tested at each concentration.
Data processing: Data analysis processing was carried out by using pClamp 10, GraphPad Prism 5 and Excel software. The inhibition degree of hERG potassium current (peak value of hERG tail current induced at −50 mV) at different compound concentrations was calculated by the following formula:
Inhibition %=[1−(I/Io)]×100%
Among the formula, Inhibition % represents the percentage of inhibition of hERG potassium current by the compound, and I and Io represent the amplitude of hERG potassium current after and before dosing, respectively.
Compound IC50 was calculated using GraphPad Prism 5 software by fitting according to the following equation: […]

“2-((1R,5S,6S)-3-(7,7-difluoro-2-((S)-2-(trifluoromethyl)azetidin-1-yl)-6,7-dihydro-5H-cyclopenta[d]pyrimidin-4-yl)-3-azabicyclo[3.1.1]heptan-6-yl)acetic acid [Isomer 2 of compound 20]” gave an IC50 (CYP2C9) of over 50 µM, an IC50 (CYP2C19) of over 50 µM and an IC50 (CYP1A2) of over 50 µM. The “inhibitory effect on the hERG potassium channel current (in words)” value (hERG potassium channel; CHO cells stably expressing hERG) was “basically has no inhibitory effect”, the IC50 (hERG potassium channel; CHO cells stably expressing hERG, whole cell patch-clamp, read-out: IC50 for inhibiting the hERG potassium channel current) was over 40 µM and the “Inhibition rate at the highest concentration tested” value (hERG potassium channel; hERG current, 40 μM, CHO cells) was 20.4 ± 3.58%@40 μM.
